Laboratory results from patent US10066272B2, “Human homeobox gene ventx and macrophage terminal differentiation and activation, compositions and methods thereof” (priority 2011, dated 2018).

Test system: VentX
Experiment: VentX expression during cytokine-induced monocyte to macrophage differentiation (RT-PCR, western blot)
Type: cell-based, human
Settings: monocytes cultured with cytokine at 100 ng/ml (FIG. 1B)
Experimental: (A) VentX expression in circulating monocytes. Monocytes were magnetically isolated by anti-CD14 beads from peripheral blood of healthy adult donors. Total RNA was extracted and RT-PCR analysis of VentX mRNA level was conducted as described in Materials and Methods. (B) VentX expression during monocyte to macrophage differentiation in vitro. Monocytes were cultured in the presence of M-CSF (M), GM-CSF (GM) or IL3 for indicated days or in the absence of cytokines for 3 days. Upper panel, VentX mRNA levels were determined by RT-PCR; lower panel, VentX protein levels were determined by western blot analysis, using VentX specific antibodies. […] Cell lysates were then obtained and luciferase activities measured. […] The VentX mRNA levels were determined by quantitative PCR for up to 7 days.
Peripheral blood mononuclear cells (PBMC) from healthy adult donors at Children's Hospital Boston were isolated by Ficoll density gradient centrifugation. […] The purity of freshly isolated CD14^+ monocytes was more than 95% as analyzed by flow cytometry. […]
Total RNA was isolated by the TRIzol reagent, and an equal amount of RNA was used for first-strand cDNA synthesis with SuperScript III First-Strand Synthesis System (Invitrogen) according to the manufacturer's protocol. […] Quantitative measurement of VentX and cytokines cDNA were performed with SYBR Green on a LightCycler® (480 Real-Time PCR System; Roche). […]

B1: IL3: cytokine purchased from PeproTech, induces monocyte to macrophage differentiation (protein, UniProt P08700 20-152, looked up)
Interleukin-3: APMTQTTPLKTSWVNCSNMIDEIITHLKQPPLPLLDFNNLNGEDQDILMENNLRRPNLEAFNRAVKSLQNASAIESILKNLLPCLPLATAAPTRHPIHIKDGDWNEFRRKLTFYLKTLENAQAQQTTLSLAIF
  VentX expression during monocyte to macrophage differentiation: up-regulated
